Results from patent publication US12319954B2, “Morphinan compounds” (Concert Pharmaceuticals, Inc., priority 2007, dated 2025).

The chains behind the UniProt entries cited, without tags or fusion partners.
UniProt P10635, whole entry: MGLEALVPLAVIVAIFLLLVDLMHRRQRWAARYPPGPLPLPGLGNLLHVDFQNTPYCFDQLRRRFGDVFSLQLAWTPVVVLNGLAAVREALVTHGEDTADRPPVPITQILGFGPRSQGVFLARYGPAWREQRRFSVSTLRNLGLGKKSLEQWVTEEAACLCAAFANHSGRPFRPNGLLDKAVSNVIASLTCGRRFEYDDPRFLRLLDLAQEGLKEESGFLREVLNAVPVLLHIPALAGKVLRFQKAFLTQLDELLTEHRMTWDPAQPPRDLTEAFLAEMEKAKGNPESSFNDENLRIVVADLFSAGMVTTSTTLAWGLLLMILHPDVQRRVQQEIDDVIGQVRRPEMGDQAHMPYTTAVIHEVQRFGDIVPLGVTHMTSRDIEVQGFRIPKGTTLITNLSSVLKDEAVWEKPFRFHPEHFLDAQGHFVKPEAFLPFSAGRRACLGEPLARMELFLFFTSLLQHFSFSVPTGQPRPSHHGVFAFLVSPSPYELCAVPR

Experiments:
[1] = Metabolic stability in human liver microsomes; conditions: low (0.1 μM) concentration of compound; data not shown
Description: The objectives of this study were to determine the metabolic stability of the test compounds in pooled human and […] liver microsomal incubations. Samples of the test compounds, exposed to pooled human or […] liver microsomes, were analyzed using HPLC-MS (or MS/MS) detection. For determining metabolic stability, multiple reaction monitoring (MRM) was used to measure the disappearance of the test compounds.
Experimental Procedures: Human liver and Cynomolgus monkey liver microsomes were obtained from XenoTech, LLC (Lenexa, KS). The incubation mixtures were prepared as follows:
Incubation of Test Compounds with Liver Microsomes: The reaction mixture, minus cofactors, was prepared. An aliquot of the reaction mixture (without cofactors) was incubated in a shaking water bath at 37° C. for 3 minutes. Another aliquot of the reaction mixture was prepared as the negative control. The test compound was added into both the reaction mixture and the negative control at a final concentration of 0.10, 0.25, or 1 μM. An aliquot of the reaction mixture was prepared as a blank control, by the addition of plain organic solvent (no test compound is added). The reaction was initiated by the addition of cofactors (not added to the negative controls), and then incubated in a shaking water bath at 37° C. […]
All samples were analyzed using LC-MS (or MS/MS). […]

[2] = molecular target: T1, Human CYP2D6+P450 Reductase SUPERSOMES (Homo sapiens, UniProt P10635); assay: Metabolic stability in CYP2D6 SUPERSOMES; format: in vitro ADME; conditions: 0.1 μM compound
T1 construct: purchased GenTest (Woburn, MA, USA); host or cells: insect cells (inferred from the negative control, insect cell microsomes)
Description: Human CYP2D6+P450 Reductase SUPERSOMES™ were purchased from GenTest (Woburn, MA, USA). A 1.0 mL reaction mixture containing 25 pmole of SUPERSOMES™, 2.0 mM NADPH, 3.0 mM MgCl, and 0.1 μM of various compounds of Formula I (Compounds 100, 101, and 108) in 100 mM potassium phosphate buffer (pH 7.4) was incubated at 37° C. in triplicate. […] Aliquots (50 μL) were removed from each sample and placed in wells of a multi-well plate at 0, 2, 5, 7, 12, 20, and 30 minutes and to each was added 50 μL of ice cold acetonitrile with 3 μM haloperidol as an internal standard to stop the reaction.
Plates containing the removed aliquots were then placed in −20° C. freezer for 15 minutes to cool. After cooling, 100 μL of deionized water was added to all wells in the plate. Plates were then spun in the centrifuge for 10 minutes at 3000 rpm. A portion of the supernatant (100 μL) was then removed, placed in a new plate and analyzed using Mass Spectrometry.

Substance: (+)-3-d3-methoxy-17-methyl-(9α, 13α, 14α)-morphinan [Compound 100]
- relative stability as compared to dextromethorphan in human liver microsomes [1]: remained the same
- remained intact after a 30 minute incubation with 2D6 Supersomes ([2]; 30 minutes): ~40%
- stability to metabolism in 2D6 Supersomes, comparative ([2]; FIG. 3): much more stable to metabolism than dextromethorphan or Compound 108
